Experimental data reported in patent publication US12201629B2 (priority 2017, dated 2025).

Columns and labels:
[1] = system: rats; experiment: Example 3A: respiratory depression, arterial blood gas analysis; assay type: in vivo, rat
[2] = system: rats; experiment: Example 3A: analgesia effects in rats (FIGS. 23, 26, 29); conditions: sc; oxycodone 8, fentanyl 0.5, hydromorphone 10 mg/kg
[3] = opioid alone sc, 1 hour post-dosing, hydromorphone HCl 10, fentanyl citrate 0.5, oxycodone HCl 8, morphine sulfate 30 mg/kg
[4] = rats, sc, oxycodone 8, fentanyl 0.5, hydromorphone 10 mg/kg

COc1ccc2c3c1O[C@H]1C(=O)CC[C@@]4(O)[C@@H](C2)N(C)CC[C@]314.Cl
arterial blood pH (MODEL) [1, 3]: 7.266 | pCO2 (MODEL) [1, 3]: 60.5 | pO2 (MODEL) [1, 3]: 67.78 | sO2% (MODEL) [1, 3]: 87.38% | pCO2 (MODEL + BUPRENORPHINE) ([1]; opioid sc + buprenorphine 0.5 mg/kg sc, 1 hour post-dosing, hydromorphone HCl 10, fentanyl citrate 0.5, oxycodone HCl 8 mg/kg, head range (37.9-56.4)): 38.408 | pO2 (MODEL + BUPRENORPHINE) ([1]; opioid sc + buprenorphine 0.5 mg/kg sc, 1 hour post-dosing, hydromorphone HCl 10, fentanyl citrate 0.5, oxycodone HCl 8 mg/kg, head range (80-109)): 79.93 | sO2% (MODEL + BUPRENORPHINE) ([1]; opioid sc + buprenorphine 0.5 mg/kg sc, 1 hour post-dosing, hydromorphone HCl 10, fentanyl citrate 0.5, oxycodone HCl 8 mg/kg, head range (90-100)): 94.65% | effects on arterial blood pCO2 and oxygen saturation, drug alone ([1]; rats, sc, buprenorphine 0.05-3, oxycodone 3 & 8, hydromorphone 1-10, fentanyl 0.5-1.5 mg/kg): significant effects | effect of opioid alone on pCO2 [1, 4]: significant elevation | effect of opioid alone on sO2% [1, 4]: significant decrease | analgesia of opioid alone in the rat [2]: full analgesia
